How the values were obtained:
Mcl-1/FITC-NOXA-B = target: T1, Mcl-1/FITC-NOXA-B (Homo sapiens, UniProt Q07820); assay: Fluorescence anisotropy competition assay, inhibition of Mcl-1/FITC-NOXA-B interaction; type: binding
T1 construct: His-SUMO (N, cleaved yes); made in house; host or cells: E. coli Rosetta 2
Experimental: To profile the binding behaviour of the constrained peptides we tested them in both competition displacement assays and direct binding assays. […] Of particular interest was the potential for the introduction of a constraint to have differential effects on protein specificity/selectivity. […] We next tested the constrained peptides in inhibition assays (Fig. 3a and b and Table 2). […]
constructs were over-expressed in the E. coli strain Rosetta 2. Cells were resuspended in 50mM TRIS pH 8.0, 500mM NaCl, 15mM Imidazole and lysed by sonication. The clarified lysate was applied to a 5ml HisTrap column equilibrated with 50mM TRIS pH 8.0, 500mM NaCl, 15mM Imidazole. The HisTrap was then washed with 10 CV of 50mM TRIS pH 8.0, 500mM NaCl, 15mM Imidazole followed by 10 CV 50mM TRIS pH 8.0, 500mM NaCl, 25mM Imidazole. […]
(§1) The buffers used for fluorescence anisotropy were either phosphate buffer (40 mM sodium phosphate, 200 mM sodium chloride, 0.02 mg ml-1 bovine serum albumin, pH 7.50) or Tris buffer (50 mM Tris, 140 mM sodium chloride, pH 7.50). […]
(§2) Assays were run in 96 or 384 well Optiplates and were scanned using a Perkin Elmer EnVisionTM 2103 MultiLabel plate reader. […]
(§3) Plates were read after 1 h […]
respectively. Plates were read after 1 h. […]
Processing of fluorescence anisotropy data
Fluorescence anisotropy data was processed using Microsoft Excel to calculate intensity, anisotropy […]

Amino acid sequences for entries named in this document (tags omitted). Chains listed by the source or under a name are the forms on record and can include a tag or linker. Residues count along the entry.
UniProt Q07820, 172-327: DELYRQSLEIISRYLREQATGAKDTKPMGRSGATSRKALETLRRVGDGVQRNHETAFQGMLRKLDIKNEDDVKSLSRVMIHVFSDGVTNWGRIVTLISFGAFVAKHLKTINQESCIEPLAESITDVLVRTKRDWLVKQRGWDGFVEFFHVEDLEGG
UniProt Q07817, with tags, fused parts or gaps DEL26-81: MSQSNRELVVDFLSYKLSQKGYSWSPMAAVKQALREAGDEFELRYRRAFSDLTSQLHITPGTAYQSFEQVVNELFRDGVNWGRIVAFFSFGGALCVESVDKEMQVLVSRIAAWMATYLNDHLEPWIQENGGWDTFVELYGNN

Bcl-xL = target: T2, Bcl-xL (Homo sapiens, UniProt Q07817, DEL26-81); assay: Fluorescence anisotropy direct binding assay with Bcl-xL
T2 construct: pET28a His-SUMO Bcl-xL (1-198, missing 26-81); made in house; host or cells: E. coli Rosetta 2
Experimental: Direct titration experiments were also performed for FITC labelled BID peptides (Fig. 5). […]
constructs were over-expressed in the E. coli strain Rosetta 2. Cells were resuspended in 50mM TRIS pH 8.0, 500mM NaCl, 15mM Imidazole and lysed by sonication. The clarified lysate was applied to a 5ml HisTrap column equilibrated with 50mM TRIS pH 8.0, 500mM NaCl, 15mM Imidazole. The HisTrap was then washed with 10 CV of 50mM TRIS pH 8.0, 500mM NaCl, 15mM Imidazole followed by 10 CV 50mM TRIS pH 8.0, 500mM NaCl, 25mM Imidazole. The fusion proteins were eluted in 50mM TRIS pH 8.0, 500mM NaCl, 300mM Imidazole. […]
as §1, §2, §3
respectively. Plates were read after 1 h.
For all variants of the labelled BID peptides (FITC-BID-WT,FITC-BID-MM, FITC-BID-DM and FITC-BID-Aib), the direct binding assays were performed in Tris Buffer in 384 well plates. […] Plates were read after 2 hours of incubation, and read again after 4 and 18 hours to ensure complete equilibration.
Processing of fluorescence anisotropy data […]

SMILES | IC50 (Mcl-1/FITC-NOXA-B) | Kd (Bcl-xL)
CC[C@H](C)[C@H](NC(=O)[C@H](CCCNC(=N)N)NC(=O)[C@H](CCCNC(=N)N)NC(=O)[C@H](CC(C)C)NC(=O)[C@H](CCC(N)=O)NC(=O)[C@H](C)NC(=O)[C@H](CS)NC(=O)[C@H](CCC(=O)O)NC(=O)[C@H](CC(=O)O)NC(=O)[C@H](CCCCN)NC(=O)[C@H](CC(C)C)NC(=O)[C@H](CC(=O)O)NC(=O)[C@H](C)NC(=O)[C@@H]1CCCN1C(C)=O)C(=O)NCC(=O)N[C@@H](CC(=O)O)C(=O)N[C@@H](CCCCN)C(=O)N[C@H](C(=O)N[C@@H](CC(N)=O)C(=O)N[C@@H](CC(C)C)C(N)=O)C(C)C [NOXA-B] | 700 nM | 
CC[C@H](C)[C@H](NC(=O)[C@H](C)NC(=O)[C@H](CC(C)C)NC(=O)[C@H](CCC(N)=O)NC(=O)[C@H](CCCNC(=N)N)NC(=O)CNC(=O)[C@@H](NC(=O)[C@H](CCC(N)=O)NC(=O)CNC(C)=O)C(C)C)C(=O)N[C@H](C(=O)NCC(=O)N[C@@H](CC(=O)O)C(=O)N[C@@H](CC(=O)O)C(=O)N[C@H](C(=O)N[C@@H](CC(N)=O)C(=O)N[C@@H](CCCNC(=N)N)C(N)=O)[C@@H](C)CC)[C@@H](C)CC [BODIPY-BAK] |  | 4 ± 3.7 nM
